According to PubChem BioAssay AID651572 (The Scripps Research Institute Molecular Screening Center, 2012):
This is a selection; strong and weak results do not stand in their true shares. The source made the active and inactive calls.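 How the source made its calls: active means inhibition above a per-plate limit, mean inhibition of low control wells plus 3 SD (cut at about 25% in these data); inactive means the rest.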

The chains behind the UniProt entries cited, without tags or fusion partners. Residues count along the entry.
UniProt Q62848, 1-136 limits assumed: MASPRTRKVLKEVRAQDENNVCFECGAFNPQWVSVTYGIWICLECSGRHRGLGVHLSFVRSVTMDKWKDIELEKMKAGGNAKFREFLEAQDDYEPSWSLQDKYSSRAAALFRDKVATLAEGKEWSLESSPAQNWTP

What follows are compounds tested against ADP-ribosylation factor GTPase-activating protein 1 (Rattus norvegicus) (UniProt Q62848) (assay: blockers of ARFGAP1-stimulated ARF1 GTP hydrolysis – biochemical, fluorescence polarization, GDP tracer, primary screen (AID 651572;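 further: 0% = DMSO wells with enzyme and 100% = wells lacking Arfgap1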)). Conditions: GDP FP detection, at 16.5 µM, stronger effect = higher value.
Method in brief: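 Material – truncated rat Arfgap1 GAP domain · Buffer or medium – HEPES-based buffer, pH 7.5 · Reagent – human ARF1(Δ1-17)-GTP substrate · Dosing – 16.5 µM single point, 1.26% DMSO · Schedule – GTP hydrolysis reaction 2 h at 25 °C · Technique – GDP detection by fluorescence polarization · Benchmarks – No-Arfgap1 wells (100%) versus DMSO full-reaction wells (0%) · Repeats – single replicate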

SMILES	inhibition
CCC(=O)N(c1ccccc1)C1(COC)CCN(CCn2nnn(CC)c2=O)CC1	inactive: 7.08%
CCC(=O)N(c1ccccc1)C1(COC)CCN(CCc2cccs2)CC1	inactive: 3.44%
